Measured values: US12202827B2, “Aldosterone synthase inhibitor” (DAMIAN PHARMA AG, priority 2016, dated 2025)
Like-named read-outs stand apart in the source and are kept apart here.

SMILES: N#Cc1ccc([C@H]2CCCc3cncn32)cc1.O=P(O)(O)O
- Assay by HPLC, anhydrous, solvent free (25° C./60% RH, 1 month): 99.5
- Assay by HPLC, anhydrous, solvent free (25° C./60% RH, 3 months): 99.8
- Assay by HPLC, anhydrous, solvent free (25° C./60% RH, 6 months): 99.6
- Assay by HPLC, anhydrous, solvent free (25° C./60% RH, 9 months): 99.7
- Assay by HPLC, anhydrous, solvent free (25° C./60% RH, 12 months): 100.3
- Assay by HPLC, anhydrous, solvent free (25° C./60% RH, Initial): 99.9
- Assay by HPLC, anhydrous, solvent free (30° C./65%RH, 1 month): 99.6
- Assay by HPLC, anhydrous, solvent free (30° C./65%RH, 3 months): 100.1
- Assay by HPLC, anhydrous, solvent free (30° C./65%RH, 6 months): 99.6
- Assay by HPLC, anhydrous, solvent free (30° C./65%RH, 9 months): 99.6
- Assay by HPLC, anhydrous, solvent free (30° C./65%RH, 12 months): 99.5
- Assay by HPLC, anhydrous, solvent free (30° C./65%RH, Initial): 99.9
- Assay by HPLC, anhydrous, solvent free (40° C./75% RH, 1 month): 99.7
- Assay by HPLC, anhydrous, solvent free (40° C./75% RH, 3 months): 100.2
- Assay by HPLC, anhydrous, solvent free (40° C./75% RH, Initial): 99.9
